Reference: ChEMBL document CHEMBL2417445, “Access to 7β-analogs of codeine with mixed μ/δ agonist activity via 6,7-α-epoxide opening” (Bioorg Med Chem Lett, 2013)

Amino acid sequences for entries named in this document (tags omitted). A change or cut given only in a name is not applied to a line headed by its entry.
UniProt P41145: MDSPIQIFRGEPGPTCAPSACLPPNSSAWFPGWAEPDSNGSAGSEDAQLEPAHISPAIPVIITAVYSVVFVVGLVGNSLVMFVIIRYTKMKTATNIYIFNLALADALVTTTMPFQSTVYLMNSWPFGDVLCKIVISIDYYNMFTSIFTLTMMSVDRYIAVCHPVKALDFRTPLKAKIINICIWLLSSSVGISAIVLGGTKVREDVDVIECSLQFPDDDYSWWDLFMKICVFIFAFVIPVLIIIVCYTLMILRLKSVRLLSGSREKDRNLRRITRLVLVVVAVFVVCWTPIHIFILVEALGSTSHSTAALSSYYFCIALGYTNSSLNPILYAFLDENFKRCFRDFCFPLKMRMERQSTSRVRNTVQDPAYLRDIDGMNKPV

Target: Kappa-type opioid receptor (Homo sapiens, UniProt P41145)
Type: functional, cell-based

## COc1ccc2c3c1O[C@H]1C(=O)CC[C@@]4(O)[C@@H](C2)N(C)CC[C@]314 [OXYCODONE]
  EC50: 16 µM
